# ChEMBL document CHEMBL3286112, “Novel aza-analogous ergoline derived scaffolds as potent serotonin 5-HT₆ and dopamine D₂ receptor ligands” (J Med Chem, 2014)
# Protein sequences, listed by entry. Tags and fused reporters are not part of them. Lines headed by an entry give the natural chain unless they say otherwise; changes in a name come on top.
# UniProt P28335: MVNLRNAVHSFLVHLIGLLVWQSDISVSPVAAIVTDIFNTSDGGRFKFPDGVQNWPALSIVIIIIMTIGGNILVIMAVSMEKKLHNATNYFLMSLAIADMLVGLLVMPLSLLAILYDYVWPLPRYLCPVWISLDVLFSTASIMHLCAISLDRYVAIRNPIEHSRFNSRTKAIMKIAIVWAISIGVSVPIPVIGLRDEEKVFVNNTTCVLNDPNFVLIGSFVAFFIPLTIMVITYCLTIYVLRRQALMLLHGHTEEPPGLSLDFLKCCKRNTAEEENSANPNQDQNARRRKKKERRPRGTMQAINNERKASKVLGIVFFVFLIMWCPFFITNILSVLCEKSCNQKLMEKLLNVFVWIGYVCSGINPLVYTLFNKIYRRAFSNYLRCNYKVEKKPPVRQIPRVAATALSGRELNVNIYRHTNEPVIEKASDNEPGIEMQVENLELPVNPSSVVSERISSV
# Target: 5-hydroxytryptamine receptor 2C (Homo sapiens, UniProt P28335)
# Assay: Displacement of [3H]5-HT from human recombinant 5-HT2C receptor expressed in HEK293 cells
# Type: cell-based
compound,measurement,value
CN1C[C@@H](NS(=O)(=O)N(C)C)C[C@@H]2c3cccc4c3c(cn4C)C[C@H]21 [MESULERGINE],Ki,1.82 nM
